Assay results taken from PMC4410366 (Biochemistry, 2015).

Target: recombinant murine iNOS (Mus musculus, UniProt P29477)
Test: Irreversible inhibition kinetics
Type: biochemical

kinact: 0.00122 s⁻¹
kinact/KI: 88.3 M⁻¹ s⁻¹
SMILES: CC(=N)NCCC[C@H](N)C(=O)O [Compound 4, N^5-(1-iminoethyl)-L-ornithine, reference compound]
